Reference: US10167272B2, “Muscarinic agonists” (Heptares Therapeutics Limited, priority 2015, dated 2019)
Only a part of the results on these compounds is given; other tests are left out.

Chains of the proteins cited; added tags and fusions are not shown.
UniProt P11229, whole entry: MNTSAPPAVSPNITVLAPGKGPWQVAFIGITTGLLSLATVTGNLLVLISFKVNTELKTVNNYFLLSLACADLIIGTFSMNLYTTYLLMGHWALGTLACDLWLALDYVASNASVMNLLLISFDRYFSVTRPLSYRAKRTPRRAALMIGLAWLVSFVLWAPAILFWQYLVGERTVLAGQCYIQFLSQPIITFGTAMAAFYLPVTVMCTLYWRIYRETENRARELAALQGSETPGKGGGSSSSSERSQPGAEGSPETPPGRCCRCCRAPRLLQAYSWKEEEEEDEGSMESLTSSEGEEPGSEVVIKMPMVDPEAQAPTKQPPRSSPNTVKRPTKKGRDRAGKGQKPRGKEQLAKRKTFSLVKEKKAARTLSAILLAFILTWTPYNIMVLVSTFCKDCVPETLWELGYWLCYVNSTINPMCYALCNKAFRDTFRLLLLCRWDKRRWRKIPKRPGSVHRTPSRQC
UniProt P08173, whole entry: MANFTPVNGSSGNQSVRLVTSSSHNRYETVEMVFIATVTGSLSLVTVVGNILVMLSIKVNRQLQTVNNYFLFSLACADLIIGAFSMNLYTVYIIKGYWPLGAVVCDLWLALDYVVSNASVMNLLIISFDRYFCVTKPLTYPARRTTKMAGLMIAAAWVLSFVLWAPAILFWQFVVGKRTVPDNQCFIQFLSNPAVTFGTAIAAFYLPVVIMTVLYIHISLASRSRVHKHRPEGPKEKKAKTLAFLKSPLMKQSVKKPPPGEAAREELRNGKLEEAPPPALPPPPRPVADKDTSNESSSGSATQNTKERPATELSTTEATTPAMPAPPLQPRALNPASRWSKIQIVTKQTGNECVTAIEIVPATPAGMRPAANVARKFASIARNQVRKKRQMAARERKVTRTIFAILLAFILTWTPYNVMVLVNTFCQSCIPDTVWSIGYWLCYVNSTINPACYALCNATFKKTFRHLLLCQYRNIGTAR

Assays:
[1] = target: human muscarinic M1 receptor (Homo sapiens, UniProt P11229); assay: Alphascreen Surefire phospho-ERK1/2 functional assay, M1; assay type: cell-based
[2] = target: human muscarinic M4 receptor (Homo sapiens, UniProt P08173); assay: Alphascreen Surefire phospho-ERK1/2 functional assay, M4; assay type: cell-based

CCOC(=O)N1CCC2(CC(N3CCC(N(C(C)=O)c4ccccn4)CC3)C2)C1 (stereo not shown)
pEC50 M1 ([1]; CHO cells stably expressing human M1): 6.8 | % Emax cf. ACh (M1) ([1]; CHO cells stably expressing human M1, relative to ACh): 116% | pEC50 M4 ([2]; CHO cells stably expressing human M4): 6.2 | % Emax cf. ACh (M4) ([2]; CHO cells stably expressing human M4, relative to ACh): 56%
